Screening data: PubChem, several laboratories
MC4R antag cAMP = MC4R antagonists of cAMP signaling, primary screen, cell-based, TR-FRET, antagonist arm of biased-ligand search; Melanocortin receptor 4 (Homo sapiens), P32245; MC4R-expressing cells, MTII-stimulated cAMP, LANCE TR-FRET; inhibition, % at 6.5 µM; 360,000 tested, 0.48% active;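 active = inhibition above its plate's cutoff, the mean of tested wells on that plate plus 3 SD, cut at about 29% in these data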;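 note: 0% = Melanotan II alone and 100% = Melanotan II plus saturating MCL0020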
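Assay system: U2OS cells stably expressing human melanocortin 4 receptor (MC4R) / Dosing: 6.5 µM / Timing: compound 30 min, challenge 1 h, detection 1 h / Measured by: Eu-cAMP/anti-cAMP TR-FRET, emission 671 nm / Replicates: singlicate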
Yeast UUG start = yeast start codon fidelity modulation; activity score, % at 18.7 µM; actives 0.13% (n = 350,000); S. cerevisiae UUG-firefly luciferase reporter, luminescence/redox ratio; AID 602363;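 active means replicate mean at a twofold rise or more, about +100% in these data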;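 further: firefly luciferase made from a UUG start codon reports start codon fidelity; reporter light over untreated wells divided by growth signal over untreated wells; some hits fall short of that in this replicate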
MC4R ag barr = MC4R agonists recruiting beta-arrestin, primary screen, cell-based, luminescence, agonist arm of biased-ligand search; Melanocortin receptor 4 (Homo sapiens), P32245; U2OS MC4R beta-arrestin complementation; percent of melanotan II response, DMSO zero; activation, % at 8.9 µM; 360,000 tested, 0.98% active;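 active = activation above a per-plate cutoff, the mean activation of sample wells on that plate plus 3 SD, cut at about 8% in these data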
ARFGAP1 inh = inhibitors of rat ARFGAP1 GAP activity, primary screen, biochemical, fluorescence polarization, GDP tracer | 360,000 tested, 0.26% active | inhibition, % at 16.5 µM | Arfgap1-stimulated ARF1 GTP hydrolysis, GDP FP detection | ADP-ribosylation factor GTPase-activating protein 1 (Rattus norvegicus), Q62848;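 active = inhibition above a per-plate limit, mean inhibition of low control wells plus 3 SD, cut at about 25% in these data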;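 note: 0% = DMSO wells with enzyme and 100% = wells lacking Arfgap1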
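Material: truncated rat Arfgap1 GAP domain; Incubation: compound-enzyme preincubation 20 min, reaction 120 min, detection 60 min, 25 °C; Read-out: percent inhibition of Arfgap1-stimulated GTP hydrolysis; Technique: FP, GDP Alexa 633 tracer displaced from anti-GDP antibody, 620/688 nm; Controls: No-Arfgap1 wells (100%) versus DMSO full-reaction wells (0%); Replication: single well per compound.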
NRP1-CendR mod = modulators of CendR peptide binding to NRP-1, primary screen, biochemical, fluorescence polarization, uHTS | Neuropilin-1 (Homo sapiens), O14786 | FAM-RPARPAR peptide binding to NRP-1 | inhibition, % at 25 µM | 360,000 tested, 0.85% active;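 active = inhibition or corrected inhibition above about 18%, plus a signal ratio from 0.5 to 1.5, limit read from the data, passing the limit was not always enough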
ASAP1 inh = inhibitors of human ASAP1 ArfGAP activity, primary screen, biochemical, fluorescence polarization. 360,000 tested, 0.19% active. Arf-GAP with SH3 domain, ANK repeat and PH domain-containing protein 1 (Homo sapiens), …. AID 624377, 2012. ASAP1-stimulated ARF1 GTP hydrolysis, GDP FP detection. inhibition, % at 16.5 µM; in the data active = inhibition above about 25%;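 note: 0% = vehicle with enzyme and substrate and 100% = no enzyme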
* marks the source's active call; other numbers are inactive results; nt = no result. Sampled rows, rich in hits. Any-hit rate of the full collection: about 2.3%.

Amino acid sequences for entries named in this document (tags omitted). Residues count along the entry.
Melanocortin receptor 4 (Homo sapiens), P32245, UniProt P32245, whole entry, looked up: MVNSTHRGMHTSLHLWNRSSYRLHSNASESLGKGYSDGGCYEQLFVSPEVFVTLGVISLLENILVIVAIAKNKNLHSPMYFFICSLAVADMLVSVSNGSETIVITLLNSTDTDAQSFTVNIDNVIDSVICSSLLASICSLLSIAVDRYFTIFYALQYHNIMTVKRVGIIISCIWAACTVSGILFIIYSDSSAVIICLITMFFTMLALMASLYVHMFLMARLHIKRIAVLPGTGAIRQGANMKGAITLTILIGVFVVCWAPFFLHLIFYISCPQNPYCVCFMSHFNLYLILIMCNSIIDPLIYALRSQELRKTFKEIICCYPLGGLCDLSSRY
ADP-ribosylation factor GTPase-activating protein 1 (Rattus norvegicus), Q62848, UniProt Q62848, whole entry, looked up: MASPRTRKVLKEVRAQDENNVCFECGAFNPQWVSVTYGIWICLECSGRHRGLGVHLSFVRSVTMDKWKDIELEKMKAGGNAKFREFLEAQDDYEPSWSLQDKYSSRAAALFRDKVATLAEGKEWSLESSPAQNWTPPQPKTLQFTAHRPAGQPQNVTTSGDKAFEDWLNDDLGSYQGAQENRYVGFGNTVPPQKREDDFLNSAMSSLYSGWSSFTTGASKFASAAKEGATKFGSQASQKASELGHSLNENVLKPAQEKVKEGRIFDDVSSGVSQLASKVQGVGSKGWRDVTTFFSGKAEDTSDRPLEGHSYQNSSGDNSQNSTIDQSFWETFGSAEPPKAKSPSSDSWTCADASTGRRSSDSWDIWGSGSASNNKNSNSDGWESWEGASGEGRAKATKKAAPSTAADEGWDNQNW
ADP-ribosylation factor GTPase-activating protein 1 (Rattus norvegicus), Q62848, UniProt Q62848, 1-136 limits assumed: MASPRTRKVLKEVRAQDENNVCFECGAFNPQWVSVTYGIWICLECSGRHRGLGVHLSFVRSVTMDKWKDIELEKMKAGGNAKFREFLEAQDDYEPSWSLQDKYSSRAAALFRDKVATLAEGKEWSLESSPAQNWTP
Neuropilin-1 (Homo sapiens), O14786, UniProt O14786, whole entry, looked up: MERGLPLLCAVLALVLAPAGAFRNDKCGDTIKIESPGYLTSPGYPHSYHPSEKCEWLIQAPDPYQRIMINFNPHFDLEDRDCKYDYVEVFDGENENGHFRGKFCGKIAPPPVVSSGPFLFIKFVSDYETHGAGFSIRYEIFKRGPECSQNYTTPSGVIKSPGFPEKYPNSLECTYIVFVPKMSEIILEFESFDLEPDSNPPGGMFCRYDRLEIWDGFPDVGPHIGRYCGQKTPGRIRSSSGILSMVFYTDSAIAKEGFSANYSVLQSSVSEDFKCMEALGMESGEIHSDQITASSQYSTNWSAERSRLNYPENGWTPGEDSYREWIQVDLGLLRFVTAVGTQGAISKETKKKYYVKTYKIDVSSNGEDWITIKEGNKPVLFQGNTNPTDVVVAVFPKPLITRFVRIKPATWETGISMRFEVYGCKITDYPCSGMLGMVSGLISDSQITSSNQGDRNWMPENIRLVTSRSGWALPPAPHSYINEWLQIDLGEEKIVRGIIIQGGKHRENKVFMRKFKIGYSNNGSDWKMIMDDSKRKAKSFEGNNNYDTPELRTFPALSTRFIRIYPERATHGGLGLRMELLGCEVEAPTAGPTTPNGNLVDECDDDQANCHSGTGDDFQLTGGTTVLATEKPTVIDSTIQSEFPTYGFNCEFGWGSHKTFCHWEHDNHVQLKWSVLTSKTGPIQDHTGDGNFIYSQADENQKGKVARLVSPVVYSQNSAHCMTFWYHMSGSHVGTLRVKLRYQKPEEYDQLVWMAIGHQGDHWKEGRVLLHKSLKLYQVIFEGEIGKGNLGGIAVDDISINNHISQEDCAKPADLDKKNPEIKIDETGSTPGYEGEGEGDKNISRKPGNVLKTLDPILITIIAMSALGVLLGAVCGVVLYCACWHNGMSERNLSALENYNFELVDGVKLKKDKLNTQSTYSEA

Start of the data: the first three compounds as a preview:
nr | compound | NRP1-CendR mod | ASAP1 inh | MC4R ag barr | MC4R antag cAMP | Yeast UUG start | ARFGAP1 inh
1 | COc1ccc(S(=O)(=O)N(C)C[C@H]2OCCCC[C@@H](C)Oc3ccc(NS(C)(=O)=O)cc3C(=O)N([C@@H](C)CO)C[C@H]2C)cc1 | nt | nt | nt | nt | 4.3 | nt
2 | C[C@H](NC(=O)C[C@@H]1CC[C@H](NC(=O)CN2CCOCC2)[C@@H](CO)O1)c1ccccc1 | nt | nt | nt | nt | -16.8 | nt
3 | Cc1nc2ccc(NC(=O)[C@H](C)N3C(=O)C4CC=CCC4C3=O)cc2s1 (some centres undefined) | 18.9* | 2.7 | -2.4 | 1.6 | -5.9 | -3.9

The listing, previewed entries included:
nr | compound | NRP1-CendR mod | ASAP1 inh | MC4R ag barr | MC4R antag cAMP | Yeast UUG start | ARFGAP1 inh
1 | COc1ccc(S(=O)(=O)N(C)C[C@H]2OCCCC[C@@H](C)Oc3ccc(NS(C)(=O)=O)cc3C(=O)N([C@@H](C)CO)C[C@H]2C)cc1 | nt | nt | nt | nt | 4.3 | nt
2 | C[C@H](NC(=O)C[C@@H]1CC[C@H](NC(=O)CN2CCOCC2)[C@@H](CO)O1)c1ccccc1 | nt | nt | nt | nt | -16.8 | nt
3 | Cc1nc2ccc(NC(=O)[C@H](C)N3C(=O)C4CC=CCC4C3=O)cc2s1 (some centres undefined) | 18.9* | 2.7 | -2.4 | 1.6 | -5.9 | -3.9
4 | CC(Nc1cccc2ccccc12)C(=O)N/N=C/c1ccccn1 (centres undefined) | 39.7* | 17.8 | 1.6 | -6.1 | -19.5 | -2.8
5 | O=C(CCCC(=O)N/N=C\c1ccccn1)N/N=C\c1ccccn1 | -4.7 | 3.5 | 1.8 | 0.8 | nt | -0.1
6 | C[C@@H]1CN([C@H](C)CO)C(=O)c2cccc(NC(=O)c3ccc(-c4nccs4)cc3)c2O[C@H]1CN(C)C(=O)Nc1ccccc1 | nt | nt | nt | nt | -4.6 | nt
7 | N#C/C(=C\Nc1ccc2cn[nH]c2c1)c1nc(-c2ccc(Cl)cc2)cs1 | -46.7 | 29.2* | -1.8 | 16.8 | nt | 15.3
8 | N#C/C(=C\Nc1ccc2cn[nH]c2c1)c1nc(-c2ccccc2)cs1 | -28.8 | 2.3 | -2.4 | 0.9 | 3.7 | -3.6
9 | CCOc1ccc(CCN2C(=S)N([C@@H](Cc3ccc(O)cc3)CN3CCCC3CN3C(=S)NC[C@@H]3Cc3ccc(O)cc3)C[C@@H]2CC(C)C)cc1 (some centres undefined) | 9.9 | 15.6 | -2.7 | 7.3 | -12.7 | 12.5
10 | CCOc1ccc(CCN2C(=S)N([C@@H](Cc3ccccc3)CN3CCC[C@@H]3CN3C(=S)NC[C@@H]3Cc3ccc(O)cc3)C[C@@H]2CC(C)C)cc1 | 18.6* | 6.7 | nt | nt | -9.5 | 10.2
11 | Cc1onc(-c2ccc(Cl)cc2Cl)c1-c1csc(COc2ccccc2)n1 | 27.4* | -12.2 | 1.3 | -0.6 | nt | 2.1
12 | CCc1noc(C)c1C(=O)Nc1nc(-c2ccc(Cl)cc2Cl)cs1 | 2.6 | -4.6 | 5.2 | 6.1 | nt | 0.2
13 | CCOc1ccccc1CN1CCNC(=O)C1CC(=O)NCCC1=CCCCC1 (centres undefined) | 44.7* | 2.1 | -0.7 | 8.4 | 1.5 | 6.3
14 | Cc1ccc(S(=O)(=O)NCCc2ccccc2)cc1 | -10.2 | 4.4 | -1.0 | -0.6 | -3.5 | 6.2
15 | Cc1ccc(S(=O)(=O)NN(Cc2ccccc2)Cc2ccccc2)cc1 | -7.8 | -12.3 | 8.8* | -0.1 | -3.1 | 10.7
16 | CCCC#Cc1cnc2c(c1)C(=O)N([C@H](C)CO)C[C@@H](C)[C@H](CN(C)Cc1ccc(F)cc1)O2 | nt | nt | nt | nt | -8.3 | nt
17 | COc1cc(OC)cc(C(=O)NCC(=O)OCC(=O)NC2CCCc3ccccc32)c1 (centres undefined) | 9.8 | 4.7 | -1.3 | 1.9 | 13.2 | -11.4
18 | COc1ccccc1NC(=O)COc1ccc(C(=O)NC2CCCc3ccccc32)cc1OC (centres undefined) | 10.1 | -6.3 | 8.5* | -6.8 | 0.5 | -5.0
19 | COc1cc(OC)cc(C(=O)N[C@H](C(=O)NC2CCCc3ccccc32)C(C)C)c1 (some centres undefined) | 27.1* | 7.7 | 0.9 | -2.0 | nt | -0.2
20 | COc1ccc(NC(=O)C(C)Sc2ccccc2)cc1 (centres undefined) | 42.4* | 9.1 | -1.8 | 1.2 | -15.3 | -2.5
21 | CC(Sc1ccccc1)C(=O)Nc1ccc(N2CCOCC2)cc1 (centres undefined) | -1.4 | -0.6 | -0.4 | -3.0 | 6.8 | -3.3
22 | Cc1cccc(Oc2ccc(Cl)cc2N)c1 | 29.0* | -1.1 | -1.8 | 6.6 | -6.2 | -0.6
